Reference: PMC9000250, “Computational Methods for Understanding the Selectivity and Signal Transduction Mechanism of Aminomethyl Tetrahydronaphthalene to Opioid Receptors” (Molecules, 2022)

The chains behind the UniProt entries cited, without tags or fusion partners.
UniProt P35372, whole entry: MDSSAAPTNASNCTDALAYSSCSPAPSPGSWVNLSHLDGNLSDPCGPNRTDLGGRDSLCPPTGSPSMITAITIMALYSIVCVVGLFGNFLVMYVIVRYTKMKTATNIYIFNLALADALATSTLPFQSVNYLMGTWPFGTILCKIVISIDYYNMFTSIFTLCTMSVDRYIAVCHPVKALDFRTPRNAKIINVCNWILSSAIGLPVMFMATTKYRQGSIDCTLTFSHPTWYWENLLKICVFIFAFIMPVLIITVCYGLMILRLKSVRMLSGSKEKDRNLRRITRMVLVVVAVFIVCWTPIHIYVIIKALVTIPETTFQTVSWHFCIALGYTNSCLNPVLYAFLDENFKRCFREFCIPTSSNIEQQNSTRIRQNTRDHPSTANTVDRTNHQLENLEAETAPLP

How the values were obtained:
[1] = target: T1, human MOR (Homo sapiens, UniProt P35372); experiment: [35S]GTP-γ-S functional assay, CHO cell membranes; assay type: biochemical; settings: MOR EC50, stimulation of [35S]GTPγS binding; NA = no activity
Protocol: In a final volume of 0.5 mL, various concentrations of each tested compound were incubated with […] (μ) of CHO cell membranes that stably expressed the human MOR. The assay buffer consisted of 50 mM Tris-HCl, pH 7.4, 3 mM MgCl2, 0.2 mM EGTA, […] and 100 mM NaCl. The final concentration of [^35S]GTP-γ-S was 0.08 nM. Nonspecific binding was measured by the inclusion of […] GTP-γ-S. Binding was initiated by the addition of the membranes. After an incubation period of 60 min at 30 °C, the reactions were terminated by rapid filtration, and the radioactivity was determined by liquid scintillation counting.

[2] = target: T1, human MOR; design: method as in PMID 27096047; settings: read-out: Ki (±SEM) MOR; cited from earlier work

SMILES: CN(C)CC1CCCCC1(O)c1cccc(O)c1 (centres unmarked) [M1, reference compound]
- EC50 [1]: 0.246 µM and 0.245 µM
- Ki [2]: 0.013 ± 0.0005 µM

Where “and” joins values, the source holds several entries; their conditions need not be identical. Identical values can stand only once.
